Source: patent US6642355B2, “Endothelin-antagonizing peptide” (priority 1991, dated 2003)

Columns and labels:
[1] = test system: endothelin-1; experiment: Effect on lowering intracellular guanosine-3',5'-cyclic monophosphate concentration increased by endothelin; format: cell-based; conditions: 3 μg/ml compound
From the text: Evaluation was made using the method of Ishii et al., described in the Journal of Pharmacology and Experimental Therapeutics, 259, 3, 1102-1108 (1991).

[2] = test system: ddy strain mice; conditions: intraperitoneal, mortality seven days after administration
[3] = molecular target: endothelin receptor; experiment: Endothelin receptor-antagonizing activity: 125I-endothelin-1 binding to bovine lung membrane fraction; conditions: read-out: concentration (IC50) causing 50% inhibition of endothelin-1 binding, 125I-endothelin-1, 25° C., 2 hours
Method: Bovine lung tissue was homogenized at 4° C. using POLYTRON (type PT10/35, manufactured by Kinematica GmbH Co.) in a buffer solution A (pH 8.3) comprising 1 mM NaHCO3, 5 mM ethylenediaminetetraacetic acid, 5 μg/ml leupeptin, 5 μg/ml pepstatin A and 40 μM phenylmethylsulfonyl fluoride. […] The inhibition rate against endothelin receptor binding activity was calculated according to the following equation. […] A: […]

[4] = test system: cell line A10 (ATCC CRL 1476); experiment: Effect on lowering intracellular calcium concentration increased by endothelin (fura-2 fluorescence); format: cell-based, rat; conditions: 1 μg/ml compound, endothelin 0.3 nM, A10 cells
Method: In this test, cell line A10 (ATCC CRL 1476) taken from an aortic unstriated muscle of a rat's breast was suspended in a Dulbecco's modified Eagle culture medium (product of Nissui Seiyaku Co.) containing 10% fetal calf serum (product of Hyclone Co.). The suspended cells were plated on a glass coverslip with a silicon rubber wall for 3 days. The cultured cells were washed with a physiological experimental solution A (pH 7.4) comprising 130 mM NaCl, 2.5 mM KCl, 1 mM CaCl2, 1 MM MgSO4, 1 mM NaH2PO4, 10 mM N-(2-hydroxyethyl)-piperazine-N′-2-ethanesulfonic acid (HEPES), 15 mM glucose and 2 mg/ml bovine serum albumin (BSA) (product of Sigma Co.). Then, 10 μM of fura-2/AM (calcium fluorescent indicator, product of Dojin Kagaku Laboratory) was added to the cells and the mixture was incubated for one hour.
The intracellular calcium concentration of the individual cells and the change in the concentration was determined by measuring the fluorescence intensity at 510 nm, exposed to ultraviolet light at excitation wavelengths 340 nm and 380 nm, with an ARGUS200 system (product of Hamamatsu Photonics Co.).

[5] = molecular target: T1, endothelin receptor (Bos taurus, UniProt P28088); experiment: Endothelin receptor-antagonizing effect: 125I-endothelin-1 binding to bovine cerebellar tissue membrane fraction
T1 construct: from tissue; host or cells: bovine cerebellar membrane fraction
T1 sequence (P28088 27-441): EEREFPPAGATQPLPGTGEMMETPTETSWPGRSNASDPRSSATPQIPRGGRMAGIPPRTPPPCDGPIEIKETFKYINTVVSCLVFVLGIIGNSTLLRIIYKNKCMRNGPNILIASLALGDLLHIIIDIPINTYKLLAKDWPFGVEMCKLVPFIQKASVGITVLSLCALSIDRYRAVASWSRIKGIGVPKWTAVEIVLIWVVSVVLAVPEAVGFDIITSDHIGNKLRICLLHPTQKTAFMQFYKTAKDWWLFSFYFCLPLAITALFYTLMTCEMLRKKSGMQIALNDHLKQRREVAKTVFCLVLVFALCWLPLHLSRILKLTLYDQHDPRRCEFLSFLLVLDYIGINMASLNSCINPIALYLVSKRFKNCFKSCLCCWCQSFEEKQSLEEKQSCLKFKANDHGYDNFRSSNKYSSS

[6] = molecular target: endothelin receptor of bovine cerebellar tissue (membrane fraction) (bovine); experiment: 125I-endothelin-1 displacement, bovine cerebellar membrane fraction
[7] = molecular target: endothelin receptor of bovine lung tissue (membrane fraction) (bovine); experiment: 125I-endothelin-1 displacement, bovine lung membrane fraction, filter binding

In the case of `C[C@@H]1NC(=O)[C@H]([C@@H](C)O)NC(=O)CNC(=O)[C@H](Cc2c[nH]cn2)NC(=O)[C@H](Cc2c[nH]c3ccccc23)NC(=O)[C@H](CC(N)=O)NC(=O)CNC(=O)C[C@@H](C(=O)N[C@@H](Cc2c[nH]c3ccccc23)C(=O)N[C@@H](Cc2ccccc2)C(=O)N[C@@H](Cc2ccccc2)C(=O)N[C@@H](CC(N)=O)C(=O)N[C@@H](Cc2ccc(O)cc2)C(=O)N[C@@H](Cc2ccc(O)cc2)C(=O)N[C@@H](Cc2c[nH]c3ccccc23)C(=O)O)NC(=O)[C@@H]2CCCN2C1=O` [Compound I-1], the “amount of increase in intracellular guanosine-3',5'-cyclic monophosphate concentration relative to that due to only 1 nM endothelin” value [1] is reported as 0%, the “minimum lethal dose (MLD)” value [2] is reported as ≥ 300 mg/kg and the IC50 [3] is reported as 25 nM. The “increase ratio of intracellular calcium concentration of the test group to the increase of the control group” value [4] was 46%.

For `CC[C@H](C)[C@H](NC(=O)[C@@H](NC(=O)[C@H](CC(=O)O)NC(=O)[C@H](CCC(N)=O)NC(=O)[C@H](Cc1c[nH]cn1)NC(=O)[C@H](C)NC(=O)[C@H](Cc1ccccc1)NC(=O)[C@H](Cc1ccc(O)cc1)NC(=O)[C@H](CC(C)C)NC(=O)[C@H](Cc1c[nH]c2ccccc12)NC(=O)[C@@H]1CC(=O)NCC(=O)N[C@@H](CC(N)=O)C(=O)N[C@@H](Cc2c[nH]c3ccccc23)C(=O)N[C@@H](Cc2c[nH]cn2)C(=O)NCC(=O)N[C@@H]([C@@H](C)O)C(=O)N[C@@H](C)C(=O)N2CCC[C@H]2C(=O)N1)C(C)C)C(=O)N[C@@H](Cc1c[nH]c2ccccc12)C(=O)O` [Compound I-28], the IC50 [5] was 3.8 nM.

`CC[C@H](C)[C@H](NC(=O)[C@H](CC(=O)O)NC(=O)[C@H](CC(C)C)NC(=O)[C@H](Cc1c[nH]cn1)NC(=O)[C@H](C)NC(=O)[C@H](Cc1ccc(O)cc1)NC(=O)[C@H](Cc1ccc(O)cc1)NC(=O)[C@@H](NC(=O)[C@H](Cc1c[nH]c2ccccc12)NC(=O)[C@@H]1CC(=O)NCC(=O)N[C@@H](CC(N)=O)C(=O)N[C@@H](Cc2c[nH]c3ccccc23)C(=O)N[C@@H](Cc2c[nH]cn2)C(=O)NCC(=O)N[C@@H]([C@@H](C)O)C(=O)N[C@@H](C)C(=O)N2CCC[C@H]2C(=O)N1)C(C)C)C(=O)N[C@H](C(=O)N[C@@H](Cc1c[nH]c2ccccc12)C(=O)O)[C@@H](C)CC` [Compound I-34] was tested, and the IC50 [5] was 2.5 nM.

With `CC[C@H](C)[C@H](NC(=O)[C@H](CC(=O)O)NC(=O)[C@H](CC(C)C)NC(=O)[C@H](Cc1c[nH]cn1)NC(=O)[C@H](C)NC(=O)[C@H](Cc1ccccc1)NC(=O)[C@H](Cc1ccc(O)cc1)NC(=O)[C@@H](NC(=O)[C@H](Cc1c[nH]c2ccccc12)NC(=O)[C@@H]1CC(=O)NCC(=O)N[C@@H](CC(=O)O)C(=O)N[C@@H](Cc2c[nH]c3ccccc23)C(=O)N[C@@H](Cc2c[nH]cn2)C(=O)NCC(=O)N[C@@H]([C@@H](C)O)C(=O)N[C@@H](C)C(=O)N2CCC[C@H]2C(=O)N1)C(C)C)C(=O)N[C@H](C(=O)N[C@@H](Cc1c[nH]c2ccccc12)C(=O)O)[C@@H](C)CC` [Compound I-41] the IC50 [5] was 0.25 nM.

`CC[C@H](C)[C@H](NC(=O)[C@H](CC(=O)O)NC(=O)[C@H](CC(C)C)NC(=O)[C@H](Cc1c[nH]cn1)NC(=O)[C@H](C)NC(=O)[C@H](Cc1ccccc1)NC(=O)[C@H](Cc1ccc(O)cc1)NC(=O)[C@@H](NC(=O)[C@H](Cc1c[nH]c2ccccc12)NC(=O)[C@@H]1CC(=O)NCC(=O)N[C@@H](CC(N)=O)C(=O)N[C@@H](Cc2c[nH]c3ccccc23)C(=O)N[C@@H](CCCCN)C(=O)NCC(=O)N[C@@H]([C@@H](C)O)C(=O)N[C@@H](C)C(=O)N2CCC[C@H]2C(=O)N1)C(C)C)C(=O)N[C@H](C(=O)N[C@@H](Cc1c[nH]c2ccccc12)C(=O)O)[C@@H](C)CC` [Compound I-42] was tested, and the IC50 [5] was 0.38 nM.

B1: Compound (I-42) (peptide)
peptide: GNWKGTAPDWVYFAHLDIIW
modifications: lactam Gly 1 N-terminus to Asp 9 side chain; Z, benzyl and nitrobenzyl groups removed
B1 gave an IC50 [6] of 0.38 nM.

For GNWHGTAPDWVYFAHLDIIW (lactam Gly 1 N-terminus to Asp 9 side chain, as in Compound (I-15)) [Compound (I-25)], the IC50 [6] was 0.24 nM.

In the case of GNWHGTAPDWVYYAHLDIIW (lactam Gly 1 N-terminus to Asp 9 side chain, as in Compound (I-15)) [Compound (I-34)], the IC50 [6] is reported as 2.5 nM.

B2: Compound (I-1) (peptide)
peptide: GNWHGTAPDWFFNYYW
modifications: lactam: N-terminal amino group of Gly 1 joined to the side-chain carboxyl of Asp 9 (X1-Y1 single bond of formula (I)); inferred from formula (I) and Examples 5, 14 and 15, the drawing is not in the text
B2 showed an IC50 [7] of 25 nM.

B3: Compound (I-41) (peptide)
peptide: GDWHGTAPDWVYFAHLDIIW
modifications: lactam Gly 1 N-terminus to Asp 9 side chain; all benzyl and nitrobenzyl groups removed
With B3 the IC50 [6] was 0.25 nM.

With GNWHGTAPDWLYFAHQDVIW (lactam Gly 1 N-terminus to Asp 9 side chain, as in Compound (I-15)) [Compound (I-28)] the IC50 [6] was 3.8 nM.
